The text below walks through data of patent US11199553B2, “25-OH vitamin D derivatives for determining vitamin D metabolites” (ORGENTEC D[…], priority 2013, dated 2021).

The conditions of the series: vitamin D-free serum matrix, 24-hour incubation at 37° C.; VD1 compared with VD2.

Regarding “3α-[α-biotinamido-ω-dodeca(ethylene glycol)-amido]-25-hydroxy-deoxyvitamin D3 [VD1]”, the “serum stability (in words)” value is given as “high serum stability”. “3β-3′[α-biotinamido-ω-dodeca(ethylene glycol)-amido]amidopropyl-ether-25-hydroxy-vitamin D3 [VD2, reference compound]”: the “serum stability (in words)” value is “significantly lower serum stability”.
